Test results reported in patent publication US20170343554A1, “METHODS OF MEASURING ERBB SIGNALING PATHWAY ACTIVITY TO DIAGNOSE AND TREAT CANCER PATIENTS” (Celcuity LLC, priority 2014, published 2017).

Experiments:
[1] = system: cells from two colon cancer patients (Patients C1 and C2); assay: CELx Combination test, impedance biosensor CReMS (Example 3); assay type: cell-based, human; details: Patient C1 cells
Protocol: The physiologic change of the C1 and C2 cells during the test was measured with an impedance biosensor CReMS and the output from the CReMS is recorded in FIGS. 3A and 3B. The comparison of the CELx test result and the third party clinical reference is recorded in FIG. 3C. […] The test also illustrates how the CELx test operates with colon cancer cells, in addition to breast cancer cells.
The CReMS, microplate, reagents, and buffers used in Examples 1 and 2 are the same as those employed in Example 3, except for the therapeutic agent used. In Example 3, two therapeutic agents, cetuximab and irinotecan, were tested. Irinotecan was purchased from Selleck Chemicals (TX, USA) and cetuximab was obtained from a clinical dispensary.
Colon cancer cells from Patients C1 and C2 were utilized and handled in the same manner as described in Example 1.
Between 6,000-12,000 cells in each well were seeded into the impedance microplate containing 120 uL settling media with serum. The solution was replaced with media containing no serum to synchronize the cells with respect to physiologic state. Twenty microliters each of irinotecan and cetuximab was added to one set each of the C1 and C2 cells; another control set of C1 and C2 cells received no drugs. […]

[2] = system: cells from two HER2 overexpressing breast cancer patients (Patient B1 and B4); assay: CELx Pathway Shutdown test, impedance biosensor CReMS, EGF perturbation (Example 1); assay type: cell-based, human
Protocol: The physiologic change of the B1 and B4 cells during the test was measured with an impedance biosensor CReMS and the output from the CReMS is recorded in FIGS. 1A and 1B. The comparison of the CELx test results and the third party clinical reference is recorded in FIG. 1C. This example illustrates how the CELx test is able to predict the responsiveness that a patient will have to different targeted pathway drugs by using a CReMS to measure the physiological change in a patient's cells continuously over a period of several hours. This example also illustrates how the presence of a genetic biomarker, in this case an overexpressing HER2 receptor, is not a sufficient condition to predict efficacy of the drug.
A 4″×6″, 96-well impedance microplate was placed into a Roche Applied Science (Indianapolis, Ind.) xCELLigence SP impedance biosensor designed to maintain constant voltage while measuring simultaneously the impedance of every well. The change in impedance for a particular well is proportional to the number of cells and type of attachment the cells have with the impedance microplate. Changes in impedance indicate a response to perturbation of these small cell populations.
Cells from Patient B1 and B4 were utilized. The cells were received at −80° C., thawed and cultured according to standard human epithelial cell handling procedure, typically in T75 culture flasks containing buffered media with serum at 37° C., 5% CO2. Prior to addition to the impedance microplate, the cells were removed from their growth container with versene, counted, and re-suspended in media without serum or other growth factors.
Standard media, serum, antibiotics (e.g. penicillin, streptomycin), and other buffers were purchased and used as delivered from ATCC (Manassas, Va., USA) or Life Technologies (Grand Island, N.Y.). […] The therapeutic agent Lapatinib, a small molecule drug, was purchased from Selleck Chemicals (TX, USA); trastuzumab, an antibody drug, was obtained from a clinical dispensary. […]

[3] = system: cancer patients (Patients B1, B2, B4, C1, C2); details: cited from earlier work

Substance	physiologic change caused by the individual drug of the combination [1]	CELx Pathway Shutdown test prediction of patient response ([2]; Patient B1)	change of cell index after the drug was added to the perturbed cells ([2]; Patient B1 cells, EGF perturbation, versus perturbation with no drug)	CELx Pathway Shutdown test prediction of patient response ([2]; Patient B4)	responsiveness recorded by the third party clinical reference standard ([3]; Patient B1 (breast cancer))	responsiveness recorded by the third party clinical reference standard ([3]; Patient B4 (breast cancer))
Cetuximab	did not cause a physiologic change	–	–	–	–	–
Trastuzumab	–	will not respond	less than 5%	would respond	unresponsive	responsive

Where two headings read alike, the source gives them in different places.
